Measured values as given in paper PMC5728538.

Amino acid sequences for entries named in this document (tags omitted). A change or cut given only in a name is not applied to a line headed by its entry.
UniProt Q93009, whole entry: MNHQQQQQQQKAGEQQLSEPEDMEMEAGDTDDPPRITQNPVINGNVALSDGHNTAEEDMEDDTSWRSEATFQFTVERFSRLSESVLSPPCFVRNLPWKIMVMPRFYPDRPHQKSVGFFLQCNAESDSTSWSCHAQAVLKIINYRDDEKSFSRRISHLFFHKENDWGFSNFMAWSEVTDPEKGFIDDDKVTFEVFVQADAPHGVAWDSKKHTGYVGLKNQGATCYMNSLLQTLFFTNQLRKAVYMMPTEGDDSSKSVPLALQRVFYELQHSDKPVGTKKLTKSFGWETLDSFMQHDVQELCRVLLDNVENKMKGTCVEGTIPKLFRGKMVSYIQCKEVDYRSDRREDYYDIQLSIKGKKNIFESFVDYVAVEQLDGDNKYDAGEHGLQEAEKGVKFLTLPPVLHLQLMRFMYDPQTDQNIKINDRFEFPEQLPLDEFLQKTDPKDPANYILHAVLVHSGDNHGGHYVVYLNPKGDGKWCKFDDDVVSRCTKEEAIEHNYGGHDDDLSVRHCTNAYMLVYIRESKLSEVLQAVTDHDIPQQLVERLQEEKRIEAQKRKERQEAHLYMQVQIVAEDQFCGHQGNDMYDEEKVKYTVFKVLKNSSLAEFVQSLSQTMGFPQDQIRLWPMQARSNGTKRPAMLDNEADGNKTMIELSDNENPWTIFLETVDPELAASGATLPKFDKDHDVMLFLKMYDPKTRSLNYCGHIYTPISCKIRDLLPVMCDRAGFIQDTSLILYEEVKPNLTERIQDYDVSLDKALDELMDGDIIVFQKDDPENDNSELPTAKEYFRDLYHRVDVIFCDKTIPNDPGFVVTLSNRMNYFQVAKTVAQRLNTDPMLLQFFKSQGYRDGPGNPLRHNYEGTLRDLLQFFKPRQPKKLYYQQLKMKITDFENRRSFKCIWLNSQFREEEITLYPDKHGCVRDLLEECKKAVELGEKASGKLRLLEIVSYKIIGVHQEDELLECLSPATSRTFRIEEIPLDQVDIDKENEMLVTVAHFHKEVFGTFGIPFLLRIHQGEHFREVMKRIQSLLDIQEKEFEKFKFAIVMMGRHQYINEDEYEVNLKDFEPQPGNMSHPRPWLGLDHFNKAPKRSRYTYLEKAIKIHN

Experiments:
USP7 core WT = USP7 core WT (Homo sapiens, UniProt Q93009); experiment: LC-MS and LC-MS/MS adduct analysis, USP7 core WT; details: S3 Fig
USP7 = USP7 (Homo sapiens, UniProt Q93009); experiment: Ub-VME based USP7 activity assay, Jurkat cells; details: 30 μM

CC(=O)c1cc([N+](=O)[O-])c(Sc2cccc(Cl)c2Cl)s1
adduct formation on USP7 core (WT vs C223A) (USP7 core WT): selectively formed adduct on the active site cysteine | inhibition of cellular USP7 activity (USP7-Ub-VME complex formation) (USP7): inhibited nearly all of the activity
